This is a selection; strong and weak results do not stand in their true shares. Some structures show a salt or complex split into parts, the way the source records it. Active and inactive are the calls of the source. No stated cut-off is given here; in the data, active means inhibition above about 34% (passing the limit was not always enough); inactive means the rest.

Protein sequences, listed by entry. Tags and fused reporters are not part of them.
UniProt O00574, whole entry: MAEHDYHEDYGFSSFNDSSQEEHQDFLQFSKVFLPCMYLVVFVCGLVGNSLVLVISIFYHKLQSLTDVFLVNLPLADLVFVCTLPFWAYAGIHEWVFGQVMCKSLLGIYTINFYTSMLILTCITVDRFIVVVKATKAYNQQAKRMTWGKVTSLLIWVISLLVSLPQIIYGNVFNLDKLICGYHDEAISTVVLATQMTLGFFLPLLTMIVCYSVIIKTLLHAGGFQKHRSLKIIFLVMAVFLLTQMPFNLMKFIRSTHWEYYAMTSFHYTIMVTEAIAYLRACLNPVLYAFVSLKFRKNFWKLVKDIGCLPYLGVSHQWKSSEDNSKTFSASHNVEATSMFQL

The results in this text go back to PubChem BioAssay AID602244 (Sanford-Burnham Center for Chemical Genomics, 2012).

This assay concerns the target C-X-C chemokine receptor type 6 (Homo sapiens) (UniProt O00574). The assay can be described thus: CXCR6 receptor inhibitors, primary screen, cell-based, beta-arrestin, luminescence, CHO-K1 PathHunter, 1536-well (AID 602244).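 Further: antagonist mode with CXCL16 agonist at 10 nM final; 0% = 10 nM CXCL16 with DMSO and 100% = unstimulated wells without agonist.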 To be noted: at 20 µM, stronger effect = higher value.
In the case of `O=C(O)c1cccc(Nc2c([N+](=O)[O-])cc([N+](=O)[O-])cc2[N+](=O)[O-])c1`, the inhibition – broadly, the change of the read-out against control, counted positive when it falls – is active: 40%.
Next, `CC1=NCCc2c1[nH]c1ccccc21.O=[N+]([O-])c1cc([N+](=O)[O-])c(O)c([N+](=O)[O-])c1`: inactive: 4.5%.
The value for `COc1ccccc1OP(C)(=O)Nc1cccc(Br)c1` (centres undefined) was inactive: -4.8%; that for `Cc1cc(C)cc(OP(C)(=O)Nc2ccc(C)cc2C)c1` (centres undefined) was inactive: 2.3%.
The value for `CCOC(=O)c1ccc(NP(C)(=O)Oc2cc(C)cc(C)c2)cc1` (centres undefined) was inactive: 11.3%; that for `CP(=O)(Nc1cccc(Br)c1)Oc1ccccc1` (centres undefined) was inactive: -3.7%; that for `Cc1cc(C)cc(OP(C)(=O)Nc2ccccn2)c1` (centres undefined) was inactive: -3.7%.
For the compound `Cc1ccc(C)c(NP(C)(=O)Oc2ccccc2)c1` (centres undefined), the inhibition was inactive: 3%.
Next, `O=[N+]([O-])c1cc([N+](=O)[O-])c(-n2nnc3ccccc32)c([N+](=O)[O-])c1`: inactive: 0.6%; `CN(Cc1cccnc1)C(=O)COc1ccc(Cl)c(Cl)c1.O=[N+]([O-])c1cc([N+](=O)[O-])c(O)c([N+](=O)[O-])c1`: inactive: 24.1%; `O=[N+]([O-])c1cc([N+](=O)[O-])c(-c2cnn(-c3ccccc3)c2)c([N+](=O)[O-])c1`: inactive: -59.6%.
Next, `Cc1nc2ccc3ccccc3c2s1.O=[N+]([O-])c1cc([N+](=O)[O-])c(O)c([N+](=O)[O-])c1`: inactive: 14.7%.
The value for `CCOC(=O)C(CC)C1=NC(C)(C)Cc2ccccc21.O=[N+]([O-])c1cc([N+](=O)[O-])c(O)c([N+](=O)[O-])c1` (centres undefined) was inactive: 15.3%.
As for `O=[N+]([O-])c1cc([N+](=O)[O-])c(Nc2nnnn2CCO)c([N+](=O)[O-])c1`, the inhibition was inactive: 29.2%.
The value for `CC1=C2N=C(C=C3N=C(C(C)=C4[N-][C@@](C)([C@@H]5N=C1[C@](C)(CCC(=O)NC[C@@H](C)OP(=O)([O-])O[C@H]1[C@@H](O)[C@@H](n6cnc7cc(C)c(C)cc76)O[C@@H]1CO)[C@H]5CC(N)=O)[C@@](C)(CC(N)=O)[C@@H]4CCC(N)=O)[C@@](C)(CC(N)=O)[C@@H]3CCC(N)=O)C(C)(C)[C@@H]2CCC(N)=O.[C-]#N.[Co+3]` was inactive: 6.8%.
Next, `COc1ccccc1OP(C)(=O)Nc1c(C)cccc1C` (centres undefined): inactive: 9.7%.
Regarding `CN1CCCCC1COC(=O)C1(O)c2ccccc2CCc2ccccc21` (centres undefined), the inhibition was inactive: -4.8%.
The value for `CP(=O)(Nc1ccc(SC(F)(F)F)cc1)Oc1ccccc1` (centres undefined) was inactive: -3.4%.
Next, `CCCOc1ccc(NP(C)(=O)Oc2ccc(Cl)cc2)cc1` (centres undefined): inactive: -7.9%.
`COc1ccc(-c2ccccn2)cc1.O=[N+]([O-])c1cc([N+](=O)[O-])c(O)c([N+](=O)[O-])c1`: the inhibition was inactive: 12.1%.
Next, `CP(=S)(Nn1cnnc1)Oc1ccccc1` (centres undefined): inactive: 6.6%; `COc1ccccc1OP(C)(=O)Nc1ccccc1` (centres undefined): inactive: 0.6%; `CP(=O)(Nc1ccccc1Br)Oc1ccccc1` (centres undefined): inactive: -7.1%.
Next, `CP(=O)(Oc1ccccc1)OC(c1ccccc1)C(F)(F)F` (centres undefined): inactive: -5.8%; `Cc1cccc(C)c1OP(C)(=O)Nc1ccc(SC(F)(F)F)cc1` (centres undefined): inactive: -1.9%; `Cc1ccc(Nc2c([N+](=O)[O-])cc([N+](=O)[O-])cc2[N+](=O)[O-])cc1`: active: 41.7%.
On to `CP(=O)(Nc1ccc(SC(F)(F)F)cc1)Oc1ccc(Cl)cc1` (centres undefined), for which the inhibition was inactive: -16.5%.
The value for `Cc1cc(C)cc(OP(C)(=O)Nc2ccc(SC(F)(F)F)cc2)c1` (centres undefined) was inactive: 10.1%; that for `CCc1ccc(OP(C)(=O)N2CCN(c3ccc([N+](=O)[O-])cc3)CC2)cc1` (centres undefined) was inactive: -5.1%.
As to `CP(=O)(NC(=O)Nc1ccccc1)Oc1ccccc1` (centres undefined), the inhibition is inactive: 5%.
Next, `CCOP(C)(=S)SCC(=O)NC(C)C(=O)O` (centres undefined): inactive: 1.2%.
Take `CCOC(=O)c1ccc(NP(C)(=O)Oc2ccc(OC)cc2)cc1` (centres undefined): the inhibition is inactive: -3.7%.
Regarding `O=[N+]([O-])c1cc([N+](=O)[O-])c(O)c([N+](=O)[O-])c1.c1ccc(Oc2ccncc2)cc1`, the inhibition is inactive: 13.2%.
The value for `CP(=O)(Nc1ccccn1)Oc1ccc(Cl)cc1` (centres undefined) was inactive: -7.7%; that for `CCN(CC)CCCOC(=O)C(O)(c1ccccc1)c1ccccc1` was inactive: 6.6%; that for `COc1ccccc1-c1ccccn1.O=[N+]([O-])c1cc([N+](=O)[O-])c(O)c([N+](=O)[O-])c1` was inactive: 14.3%.
Next, `O=[N+]([O-])c1cc([N+](=O)[O-])c(Nc2cccnc2)c([N+](=O)[O-])c1`: inactive: 24.9%; `Cc1cccc(C)c1OP(C)(N)=O` (centres undefined): inactive: 0%; `CC(C)(C)c1ccc(OP(C)(=O)Nc2ccc(SC(F)(F)F)cc2)cc1` (centres undefined): inactive: 2.2%.
The value for `O=[N+]([O-])c1ccc2c(c1)C=Nc1ccccc1O2` was inactive: -9.1%.
Take `CCOC(=O)c1ccc(NP(C)(=O)Oc2ccccc2)cc1` (centres undefined): the inhibition was inactive: -7.6%.
`Cc1ccc(NP(C)(=O)Oc2ccccc2)c(C)c1` (centres undefined): the inhibition was inactive: -2.8%.
Next, `COc1ccccc1OP(C)(=O)Nc1ccc(C)cc1` (centres undefined): inactive: -3.3%; `COc1ccc(OP(C)(=O)Nc2cccc(F)c2)cc1` (centres undefined): inactive: -1.7%.
With `COc1ccccc1OP(C)(=O)Nc1cc(Cl)ccc1C` (centres undefined), the inhibition is inactive: -0.4%.
The value for `Cc1cc(C)cc(OP(C)(N)=O)c1` (centres undefined) was inactive: -4.2%; that for `Cc1cc(C)cc(OP(C)(=O)Nc2cccc(C(F)(F)F)c2)c1` (centres undefined) was inactive: -1.3%.
The value for `O=C1C(O)=C([N+](=O)[O-])C(=O)C(O)=C1[N+](=O)[O-]` was inactive: 6.7%.
The value for `COc1ccc(OP(C)(=O)Nc2ccccc2Br)cc1` (centres undefined) was inactive: 1.4%.
Turning to `COc1ccccc1OP(C)(=O)Nc1ccc(C)c(C)c1` (centres undefined), the inhibition was inactive: 0.9%.
The value for `CP(=O)(OCCOc1ccccc1)OCCOc1ccccc1` was inactive: -5.7%.
Next, `CP(=O)(Nc1ccc(Cl)cc1Cl)Oc1ccccc1` (centres undefined): inactive: -0.1%; `CCCCCCCCCCCCCCCC1C[N+](C)(C)CCOP(C)(=O)O1` (centres undefined): inactive: 29.1%.
On to `COc1ccccc1OP(C)(=O)Nc1ccc(Br)cc1` (centres undefined), for which the inhibition was inactive: -5.1%.
Next, `CN(C)CCOC(=O)C(O)(c1ccccc1)C1CCCC1` (centres undefined): inactive: 2%; `COc1ccc(OP(C)(=O)Nc2ccccn2)cc1` (centres undefined): inactive: -0.1%; `O=[N+]([O-])c1cc([N+](=O)[O-])c(Nc2ccccn2)c([N+](=O)[O-])c1`: inactive: 22.7%.
Next, `Cc1c(NP(C)(=O)Oc2ccc(C(C)C)cc2)c(=O)n(-c2ccccc2)n1C` (centres undefined): inactive: 9.1%; `CCc1ccc(OP(C)(=O)O)cc1`: inactive: 0%; `COc1ccccc1OP(C)(=O)Nc1ccc(C)cc1C` (centres undefined): inactive: -10.2%.
Turning to `CP(=O)(Nc1ccccn1)Oc1ccccc1` (centres undefined), the inhibition is inactive: -1.5%.
Next, `COc1ccc(OP(C)(=O)Nc2ccc(Br)cc2)cc1` (centres undefined): inactive: 0.5%; `CCN(CC)CC(O)COC(=O)C(O)(c1ccccc1)C1CCCCC1` (centres undefined): inactive: -25.7%.
For the compound `CCc1ccc(OP(C)(=O)Nc2cccnc2)cc1` (centres undefined), the inhibition is inactive: 2.5%.
As for `CP(=O)(Oc1ccccc1)N1CCOC1=O` (centres undefined), the inhibition is inactive: -8.3%.
The value for `O=C(OCCCN1CCCC1)C(O)(c1ccccc1)C1CCCCC1` (centres undefined) was inactive: 12.3%.
The value for `COc1ccccc1OP(C)(=O)Nc1c(C)n(C)n(-c2ccccc2)c1=O` (centres undefined) was inactive: 1.2%; that for `CP(=O)(Nc1ccc(Cl)cc1)Oc1ccc(F)cc1` (centres undefined) was inactive: 0.5%.
The value for `CC(C)(C)c1ccc(OP(C)(=O)O)cc1` was inactive: -4.6%; that for `COc1ccccc1OP(C)(=O)Nc1ccccc1Br` (centres undefined) was inactive: 9.9%.
Regarding `CN(C)C(=O)c1c([N+](=O)[O-])cc([N+](=O)[O-])cc1[N+](=O)[O-]`, the inhibition was inactive: -17.9%.
Next, `CP(=O)(OC12CC3CC(CC(C3)C1)C2)OC12CC3CC(CC(C3)C1)C2`: inactive: -2.1%; `CCOC(=O)c1ccc(NP(C)(=O)Oc2ccc(Cl)cc2)cc1` (centres undefined): inactive: -7.8%; `COc1ccc(OP(C)(=O)Nc2cccc(Br)c2)cc1` (centres undefined): inactive: -5.4%.
Next, `COc1ccc(NP(C)(=O)Oc2ccccc2OC)cc1` (centres undefined): inactive: -7%; `CN(C)CCOC(=O)C(O)(c1ccccc1)C1CCCCC1` (centres undefined): inactive: 1.6%; `O=[N+]([O-])c1cc([N+](=O)[O-])c(NCC2CCS(=O)(=O)C2)c([N+](=O)[O-])c1` (centres undefined): inactive: -2.7%.
Consider `Cc1cc(-c2cccc3ccccc23)c(C)cn1.O=[N+]([O-])c1cc([N+](=O)[O-])c(O)c([N+](=O)[O-])c1`, for which the inhibition is inactive: 12.5%.
Next, `O=[N+]([O-])c1ccc(OP2(=O)COCCO2)cc1` (centres undefined): inactive: 0.3%; `Cc1c(C(c2ccc3c(c2)OCO3)c2c(C)n(C)n(-c3ccccc3)c2=O)c(=O)n(-c2ccccc2)n1C.O=[N+]([O-])c1cc([N+](=O)[O-])c(O)c([N+](=O)[O-])c1`: inactive: -7.8%; `CP(=O)(Nc1ccc(SC(F)(F)F)cc1)Oc1ccc(F)cc1` (centres undefined): inactive: -8.6%.
The value for `CCOP(C)(=S)SCC(=O)NC(C)(CC)C(=O)O` (centres undefined) was inactive: -5%.
The value for `CP(=O)(Nc1ccc2c(c1)OCCO2)Oc1ccccc1` (centres undefined) was inactive: 7.1%; that for `O=[N+]([O-])c1cc([N+](=O)[O-])c(C(F)(F)F)c([N+](=O)[O-])c1O` was inactive: 16.6%; that for `Cc1ccccc1NP(C)(=O)Nc1ccccc1C` was inactive: -3.7%.
For `O=[N+]([O-])c1cc([N+](=O)[O-])c(Nc2ccc(Cl)cc2)c([N+](=O)[O-])c1`, the inhibition was active: 44.6%.
Next, `CC(C)c1ccc(OP(C)(=O)Nc2ccc(SC(F)(F)F)cc2)cc1` (centres undefined): inactive: -7.9%; `CP(=O)(Nc1ccccc1F)Oc1ccccc1` (centres undefined): inactive: 7.1%; `O=C(OCCN1CCN(CCOCc2ccccc2)CC1)C(O)(c1ccccc1)c1ccccc1`: inactive: -4.6%.
Next, `O=C(OC1CN2CCC1CC2)c1ccc([N+](=O)[O-])cc1` (centres undefined): inactive: -3.3%.
The value for `COc1ccc2c(c1O)-c1c(O)c(OC)cc3c1[C@H](C2)[N+](C)(C)CC3.O=[N+]([O-])c1cc([N+](=O)[O-])c([O-])c([N+](=O)[O-])c1[O-]` was inactive: 1.5%.
`CCN(CC)CCCNc1ccccc1[N+](=O)[O-].O=[N+]([O-])c1cc([N+](=O)[O-])c(O)c([N+](=O)[O-])c1`: the inhibition is inactive: 15.6%.
The value for `COc1ccc(OP(C)(=O)Nc2ccc(SC(F)(F)F)cc2)cc1` (centres undefined) was inactive: 5%; that for `CCOC(=O)c1ccc(NP(C)(=O)Oc2ccc(F)cc2)cc1` (centres undefined) was inactive: -2.5%.
Next, `CCN(CC)CCCOC(=O)C(O)(c1ccccc1)C1CCCCC1` (centres undefined): inactive: 4.3%; `Cc1c([N+](=O)[O-])cc([N+](=O)[O-])c(Br)c1[N+](=O)[O-]`: inactive: 11.4%.
Next, `O=[N+]([O-])c1cc([N+](=O)[O-])c(OC2CCCCC2O)c([N+](=O)[O-])c1` (centres undefined): inactive: 21.5%.
With `CCCCCOc1ccc(NP(C)(=O)Oc2ccc(Cl)cc2Cl)cc1` (centres undefined), the inhibition was inactive: 4.4%.
With `CP(=O)(Nc1ccccc1)Oc1ccc(F)cc1` (centres undefined), the inhibition is inactive: -6.9%.
